{"source": "patent US11584736B2", "about": "“Heterocyclic P2Y14 receptor antagonists” (The United States of America, as represented by the …, priority 2018, dated 2023)"}
{"biological_target": "T1, hP2Y14R (Homo sapiens, UniProt Q15391)", "T1 construct": "expressed in transfected cells", "T1 sequence (Q15391 1-338)": "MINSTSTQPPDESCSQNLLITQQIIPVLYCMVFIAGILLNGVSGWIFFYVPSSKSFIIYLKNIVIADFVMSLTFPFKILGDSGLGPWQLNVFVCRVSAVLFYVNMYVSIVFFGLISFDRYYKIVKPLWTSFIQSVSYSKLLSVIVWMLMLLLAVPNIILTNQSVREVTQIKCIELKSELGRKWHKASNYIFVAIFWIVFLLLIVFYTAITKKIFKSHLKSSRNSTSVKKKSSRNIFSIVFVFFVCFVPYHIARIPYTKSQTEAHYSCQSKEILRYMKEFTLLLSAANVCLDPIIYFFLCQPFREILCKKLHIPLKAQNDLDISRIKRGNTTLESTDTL", "assay": "Competitive fluorescent binding assay, flow cytometry of whole hP2Y14R-CHO cells", "conditions": "Table 1, fluorescent antagonist tracer 20 nM, mean ± SEM (n = 3-5)", "description": "(§1) Cell Culture: Chinese hamster ovary cells stably expressing the hP2Y14—R (CHO-hP2Y14R) were grown in Dulbecco's Modified Eagle's Medium (DMEM)/Ham's F12 (F12) 1:1 supplemented with 10% FBS, 100 units/mL penicillin, […] streptomycin, 2 mM L-glutamine and 0.500 mg/mL G418 Sulfate (Geneticin). Cells were maintained in a humidified atmosphere and sterile incubation conditions held at 37° C. and 5% CO2 (g).\n(§2) Competitive Assay: Competitive fluorescent assays were performed on a BD FACSCalibur flow cytometer in conjunction with the softwares BD Bioscience PlateManager and CellQuest. All cell culture growth and assays for this procedure were conducted on flat-bottom 96-well plates. CHO-hP2Y14R cells were grown to approximately 80-90% confluency prior to assays. The 96-well plate format enabled four compounds to be analyzed in triplicate per run. All unlabeled ligand compounds are stored as 5 mM stock solutions in dimethyl sulfoxide (DMSO). Serial dilutions of each compound were prepared in complete medium. Cells were initially incubated with unlabeled compounds for 30 min at 37° C. and 5% CO2 (g). […] After three consecutive washes in sterile 1× Dulbecco's Phosphate Buffered Saline (DPBS) minus Ca^2+/Mg^2+, cells were detached from the plate using Corning Cellstripper™ to reduce damaging the hP2Y14R protein. Final cell suspensions for flow cytometry was in DPBS minus Ca^2+/Mg^2+.\n(§3) IC50 values were determined from the gathered data with the program GraphPad Prism version 7.0.", "units": {"IC50": "nM"}}
{"smiles": "CC(=O)NCCOCCOCCOCCOCCOCCOCCC(=O)N1CCC(c2ccc(-c3cc(C(=O)O)cc4cc(-c5ccc(C(F)(F)F)cc5)ccc34)cc2)CC1", "note": "[Compound 13, 4-(4-(1-(2-Oxo-6,9,12,15,18,21-hexaoxa-3-azatetracosan-24-oyl)piperidin-4-yl)phenyl)-7-(4-(trifluoromethyl)phenyl)-2-naphthoic acid]", "IC50": "979 ± 331"}
{"smiles": "CC(C)(C)OC(=O)NCCOCCOCCOCCOCCOCCOCCC(=O)N1CCC(c2ccc(-c3cc(C(=O)O)cc4cc(-c5ccc(C(F)(F)F)cc5)ccc34)cc2)CC1", "note": "[Compound 14, 4-(4-(1-(2,2-Dimethyl-4-oxo-3,8,11,14,17,20,23-heptaoxa-5-azahexacosan-26-oyl)piperidin-4-yl)phenyl)-7-(4-(trifluoromethyl)phenyl)-2-naphthoicacid]", "IC50": "2830 ± 1150"}
{"smiles": "COCCOCCOCCOCCOCCOCCC(=O)N1CCC(c2ccc(-c3cc(C(=O)O)cc4cc(-c5ccc(C(F)(F)F)cc5)ccc34)cc2)CC1", "note": "[Compound 11, 4-(4-(1-(2,5,8,11,14,17-Hexaoxaicosan-20-oyl)piperidin-4-yl)phenyl)-7-(4-(trifluoromethyl)phenyl)-2-naphthoic acid]", "IC50": "1410 ± 560"}
{"biological_target": "T1, hP2Y14R", "assay": "Competitive fluorescent binding assay, flow cytometry of whole hP2Y14R-CHO cells", "conditions": "Table 2, fluorescent antagonist tracer 20 nM, mean ± SEM (n = 3-5)", "description": "as §1, §2, §3", "units": {"IC50": "nM"}}
{"smiles": "NC(=O)c1ccc(-c2cc(C(=O)O)cc(-c3cc4cc(C(F)(F)F)ccc4[nH]3)c2)cc1", "note": "[Compound 30, 4′-Carbamoyl-5-(5-(trifluoromethyl)-1H-indol-2-yl)-[1,1′-biphenyl]-3-carboxylic acid]", "IC50": "2440 ± 430"}
{"smiles": "NC(=O)c1ccc(-c2cc(C(=O)O)cc(-c3nc4cc(C(F)(F)F)ccc4[nH]3)c2)cc1", "note": "[Compound 32, 4′-Carbamoyl-5-(5-(trifluoromethyl)-1H-benzo[d]imidazol-2-yl)-[1,1′-biphenyl]-3-carboxylic acid]", "IC50": "24400 ± 3300"}
{"smiles": "Cc1c(C(=O)O)cc(-c2cn(-c3ccc(C(F)(F)F)cc3)nn2)cc1-c1ccc(C2CCNCC2)cc1", "note": "[Compound 34, 2-Methyl-4′-(piperidin-4-yl)-5-(1-(4-(trifluoromethyl)phenyl)-1H-1,2,3-triazol-4-yl)-[1,1′-biphenyl]-3-carboxylic acid]", "IC50": "11100 ± 1600"}
